Patent US20070104652A1, “Pharmaceutical spray formulation comprising a hydro fluor alkane and an acylated cyclodextrin” (priority 2003, published 2007)

Experiment: Solubility of peracetylated cyclodextrins in HFA propellants, assessed visually
Type: physicochemical
Conditions: equilibrated one week, visual
Procedure: The solubility of peracetylated cyclodextrins (alpha, beta and gamma) in HFA propellants was assessed visually in clear PET vials crimped with a continuous pMDI valve. Known amounts of cyclodextrins were weighed into the PET vials. Continuous valves were crimped on the vial, and HFAs were added under pressure to the required amount. The samples were left to equilibrate over one week and were visually inspected. The solubility of the modified cyclodextrin at room temperature was evaluated by discriminating between samples that were clear by opposition to those samples that still had solid particles in suspension.

With peracetylated gamma (γ) cyclodextrin the “solubility in HFA 134a” value (HFA 134a, room temperature) was “above 1 % w/w” and the “solubility in HFA 227” value (HFA 227, room temperature) was “above 1 % w/w”.
